## Antibody variant affinities, Ab-14 light chain, assay 1

All variants were tested on one target, the spike HR2 peptide PDVDLGDISGINAS (SARS-CoV-2).

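Phage display of a naive human antibody library on the peptide gave the parent. Variants in AAYL50 differ from the parent at up to three CDR positions; double and triple changes were sampled at random. AlphaSeq pools MATa yeast showing the antibodies with MATalpha yeast showing the peptide. Binding brings cells together so that they mate, and sequencing counts the barcode pairs among the diploids. The ratio of observed to expected reads was calibrated, replicate by replicate, on BCL2-family standards whose Kd was known from biolayer interferometry. The assay was run in three technical replicates.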

Parent: Ab-14, a human scFv built as VH, a 15-residue (Gly4Ser)3 linker, VL. Only the CDRs of the light chain vary.
VH: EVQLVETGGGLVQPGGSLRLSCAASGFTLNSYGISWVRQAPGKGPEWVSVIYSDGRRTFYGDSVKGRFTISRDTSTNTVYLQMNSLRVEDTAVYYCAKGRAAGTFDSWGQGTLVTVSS
VL: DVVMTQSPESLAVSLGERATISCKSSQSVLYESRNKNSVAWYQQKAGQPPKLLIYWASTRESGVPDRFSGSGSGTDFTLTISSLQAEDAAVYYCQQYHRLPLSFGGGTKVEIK

The parent's light chain CDRs are KSSQSVLYESRNKNSVA, WASTRES, QQYHRLPLS; each variant's own CDRs replace them letter for letter. Every variant below is changed at W56 of the VL (sequential numbering). Values are log10 of the apparent Kd in nM; lower means stronger binding. The mean shown is taken over the replicates in which the pair was detected. A pair that was not seen in that replicate is written "nd"; this usually means weak binding, but a binder can also be missed. Entries are sorted by rising average, undetected variants last. As a blank, each scFv also met three strains without target: over library AAYL50, 18% of these pairings were detected, typically at 4.19 and seldom below 2.99. For each scFv, signals with the empty controls are counted beside the result.

The variant KSSQSQLYESRNKDSVA / QASTRES / QQYHRLPLS gave -0.65, -0.13, -0.39 (mean -0.39; controls 0 of 9). The variant KSSQSELYESRTKNSVA / EASTRES / QQYHRLPLS gave -0.41, 0.05, -0.17 (mean -0.17; controls 4 of 9). With KSSQSVLYESRNKNSVA / GASTREE / QQYHRLPLS the result was -0.27, 0.08, -0.11 (mean -0.10; controls 3 of 9). With KSSQSVLYESRNKNSVA / GATTRET / QQYHRLPLS the result was -0.22, 0.13, -0.12 (mean -0.07; controls 9 of 9). For KSSQSVLYESRNKNSVA / DASTRRS / QTYHRLPLS, the assay gave -0.13, 0.22, -0.03 (mean 0.02; controls 9 of 9). The variant KSFQSTLYESRNKNSVA / DASTRES / QQYHRLPLS showed 0.27, 0.40, 0.23 (mean 0.30; controls 2 of 9). For KSSQSVLYQSRNKNSVA / QASTRES / QQYHRLPLS, the assay gave 0.29, 0.60, 0.37 (mean 0.42; controls 4 of 9). For KSGQSVLYESRNKNSVA / RASTRES / YQYHRLPLS, the assay gave 0.28, 0.78, 0.55 (mean 0.54; controls 4 of 9).

The variant KSSSSVLYESRNKNSVA / QASTRES / QQYHRLPLS gave 0.58, 0.65, 0.52 (mean 0.58; controls 2 of 9). The variant LSSQSVLYESRNKNSVA / NASTRES / QLYHRLPLS showed 0.60, 0.78, 0.70 (mean 0.69; controls 1 of 9). For KSEQSVLYPSRNKNSVA / YASTRES / QQYHRLPLS, the assay gave 0.63, 0.87, 0.83 (mean 0.78; controls 5 of 9). For KSSQSVLCESRNKNSVA / AASTRES / QQYHRLPLS, the assay gave 0.80, 0.84, 0.77 (mean 0.80; controls 4 of 9). For KSSQSVLYESRMKNNVA / RASTRES / QQYHRLPLS, the assay gave 0.84, 0.91, 0.85 (mean 0.87; controls 2 of 9). For KSSDSVLYESRNKNSVA / RASTRES / QQYHRLPKS, the assay gave 0.67, 1.09, 0.86 (mean 0.87; controls 1 of 9). The variant KSSQSVLYESRKKNSVA / NASTRES / QQYHRFPLS gave 0.64, 0.91, 1.44 (mean 1.00; controls 0 of 9). With KSSQVVLYESRNKNMVA / SASTRES / QQYHRLPLS the result was 0.93, 1.12, 1.10 (mean 1.05; controls 4 of 9).

For KSSQPVLYESRNKNSVA / FASTRIS / QQYHRLPLS, the assay gave 1.36, 1.22, 1.05 (mean 1.21; controls 1 of 9). For KSSQPVLYESRNKNSVA / LASTRES / QQYTRLPLS, the assay gave 1.22, 1.18, 1.33 (mean 1.24; controls 4 of 9). With KSSQSVLYESRVKNSVA / GASTRES / QQYHHLPLS the result was 1.24, 1.31, 1.30 (mean 1.28; controls 2 of 9). For KSSQSVLYESGNKNSVA / FASTRES / QQYHRLCLS, the assay gave 1.25, 1.33, 1.44 (mean 1.34; controls 5 of 9). The variant KSSQSVLYEGRNKNSVA / MASTRES / QQYHRLPLF showed 1.27, 1.38, 1.50 (mean 1.38; controls 6 of 9). With NSSQSVLYESRNKNSVA / TASTRQS / QQYHRLPLS the result was 1.61, 1.64, 1.53 (mean 1.60; controls 2 of 9). The variant KSSQSVLYESRKKNSVA / HASTRPS / QQYHRLPLS showed 1.58, 1.66, 1.71 (mean 1.65; controls 4 of 9). With KSSQSVLYESANKNSVA / CASKRES / QQYHRLPLS the result was 1.68, 1.74, 1.64 (mean 1.69; controls 0 of 9).

With KSSQSVNYESRNKNSVA / AASTEES / QQYHRLPLS the result was 1.98, 2.02, 2.06 (mean 2.02; controls 2 of 9). The variant KSSQSVLYESRNKNSVA / AASTREV / QRYHRLPLS gave 1.83, 1.92, 2.32 (mean 2.02; controls 1 of 9). With KPSQSVLYESRNKNSVA / QASTRIS / QQYHRLPLS the result was 2.14, 2.10, 2.21 (mean 2.15; controls 2 of 9). With KSSQSVLYESRNKNSVA / DASTYRS / QQYHRLPLS the result was 2.36, 1.98, 2.36 (mean 2.23; controls 4 of 9). The variant KSSQSVLYESRNKNSVA / YASTKWS / QQYHRLPLS gave 3.29, 1.54, 2.09 (mean 2.31; controls 0 of 9). For ESSQSVLYESRNKNSVA / AASTRES / MQYHRLPLS, the assay gave nd, 2.74, nd (controls 0 of 9). The variant KSSQSVLYESRNKNRVA / YASTPES / QQYHRLPLS showed 3.20, 2.84, 3.70 (mean 3.25; controls 1 of 9). The variant KSSQSVLYGSRNKNSVA / VASTRES / QQYTRLPLS gave nd, 3.25, nd (controls 1 of 9).

The variant KSSQSVLYESRFKNSVA / HASTRES / QQSHRLPLS gave nd, 3.50, nd (controls 2 of 9). The variant KSSQSVLYESRNKNSVA / HASTRRS / CQYHRLPLS showed nd, nd, 4.12 (controls 4 of 9). The variant KSSQSVLYESRNKNSVE / AASTRES / QQYHRLPLP showed 3.64, nd, 4.68 (mean 4.16; controls 3 of 9). For KSSQSVLYESRNKNSVA / IPSTRES / QQYHRLPPS, the assay gave nd, 4.29, nd (controls 3 of 9). For KSSQSVIYESRNKNSVA / HASTRES / QQYHRLHLS, the assay gave 3.36, nd, 5.27 (mean 4.31; controls 3 of 9). The variant KSSQSVLGESRNKNSVA / MASTYES / QQYHRLPLS showed 4.32, nd, nd (controls 1 of 9). The variant KSSQSVLYESRNKNSVA / AASTRES / RQYHRTPLS showed 4.59, nd, nd (controls 6 of 9). The variant KSGQSVLYESRPKNSVA / YASTRES / QQYHRLPLS showed 4.14, 4.63, 5.16 (mean 4.64; controls 7 of 9).

With KSSQSVLYESRNKNSVA / LLSTRES / QQYHRLPLL the result was nd, 5.02, nd (controls 5 of 9). The variant KSSQSVLYESRNKNSVA / SASTRES / QQYHRLPLS gave nd, nd, 5.72 (controls 3 of 9). With KSSQSLLYEWRNKNSVA / PASTRES / QQYHRLPLS the result was nd, nd, nd (controls 0 of 9). For KSSQSVLYESRNKNSVA / VASTRLN / QQYHRLPLS, the assay gave nd, nd, nd (controls 0 of 9). With KSSQSVLYESRNKNSVA / LASTRES / QQYHRLYES the result was nd, nd, nd (controls 1 of 9). For KSSQSVLYESRNKNSVA / RESTRES / QQGHRLPLS, the assay gave nd, nd, nd (controls 0 of 9). For KSSQSILYESRNKNSVA / RASTRES / HQYHRLPLS, the assay gave nd, nd, nd (controls 0 of 9). The variant KSSQSVLYESRNKNSVR / DASTRDS / QQYHRLPLS showed nd, nd, nd (controls 1 of 9).

With KSSQSVLYESRNKNSCA / PASCRES / QQYHRLPLS the result was nd, nd, nd (controls 0 of 9). The variant KSSQSVLYESRNKNSVA / TWSNRES / QQYHRLPLS showed nd, nd, nd (controls 0 of 9). The variant KSSQSVLYESRNKNSVA / EASTRES / FQYHFLPLS gave nd, nd, nd (controls 2 of 9).

The 5 strongest on average among those seen in every replicate, once more:

The variant KSSQSQLYESRNKDSVA / QASTRES / QQYHRLPLS gave -0.65, -0.13, -0.39 (mean -0.39; controls 0 of 9).
The variant KSSQSELYESRTKNSVA / EASTRES / QQYHRLPLS gave -0.41, 0.05, -0.17 (mean -0.17; controls 4 of 9).
The variant KSSQSVLYESRNKNSVA / GASTREE / QQYHRLPLS gave -0.27, 0.08, -0.11 (mean -0.10; controls 3 of 9).
The variant KSSQSVLYESRNKNSVA / GATTRET / QQYHRLPLS gave -0.22, 0.13, -0.12 (mean -0.07; controls 9 of 9).
The variant KSSQSVLYESRNKNSVA / DASTRRS / QTYHRLPLS gave -0.13, 0.22, -0.03 (mean 0.02; controls 9 of 9).

Data: MIT Lincoln Laboratory AlphaSeq set, Engelhart et al. 2022, doi:10.1038/s41597-022-01779-4, as distributed in FLAb.